In patent publication US6989399B2, “Antiamyloid phenylsulfonamides: N-alkanol derivatives” (Bristol-Myers Squibb Company, priority 2002, dated 2006) one finds IC50 data, which are given here for 2 molecules.

The experiment concerns the target γ-secretase (Homo sapiens, UniProt P49768). Briefly: Isolated membrane γ-secretase assay, time-resolved fluorescence detection of Aβ. To be noted: read-out: Activity (IC50), Inhibition of β-Amyloid Peptide; isolated membranes, about 90 minutes at 37 degrees C. From the text: The detection of γ-secretase activity requires assays capable of reliable, accurate and expedient detection of γ-secretase cleavage products, particularly Aβ. An isolated membrane fraction that contains functionally active γ-secretase and β-APP substrates can generate γ-secretase cleavage products including Aβ (Roberts et al., WO 01/75435; Fechteler et al., Patent Application No. DE 99-19941039 19990828; Shearman et al., Biochemistry, 39, p. 8698–8704 (2000); Zhang et al., Biochemistry, 40, p. 5049-5055 (2001)). […] 325–327 (1992), or by a preferred method using time-resolved fluorescence of the homogeneous sample containing membranes and Aβ (Roberts et al., WO 01/75435; Shearman et al., Biochemistry, 39, p. 8698–8704 (2000)). The Aβ present in a homogeneous sample containing membranes can be detected by time-resolved fluorescence with two antibodies that recognize different epitopes of Aβ. […] A lack of fluorescence is indicative of the absence of cleavage products, resulting from inhibition of γ-secretase. […]
A typical membrane-based assay requires 45 μg membrane protein per well in a 96- or 384-well format. […] Incubation of the membranes with the test agent will continue for approximately 90 minutes at which time fluorescence labeled antibodies are added to each well for Aβ quantitation. […]

The structures appear in SMILES notation.

As usually defined, the IC50 is the concentration that gives 50% inhibition. For `C#CCC(O)[C@@H](C)N(c1cc(Cl)ccc1Cl)S(=O)(=O)c1ccc(Cl)cc1` (single isomer, unassigned), the IC50 was less than 50 nM.

Regarding `CC(OC(=O)NCCCn1ccnc1)[C@@H](C)N(c1cc(Cl)ccc1CO)S(=O)(=O)c1ccc(Cl)cc1` (single isomer, unassigned), the concentration for half-maximal inhibition (IC50) is less than 50 nM.
